{"sequences": {"note": "The chains behind the UniProt entries cited, without tags or fusion partners. Residues count along the entry.", "UniProt P36544, 23-502 limits assumed": "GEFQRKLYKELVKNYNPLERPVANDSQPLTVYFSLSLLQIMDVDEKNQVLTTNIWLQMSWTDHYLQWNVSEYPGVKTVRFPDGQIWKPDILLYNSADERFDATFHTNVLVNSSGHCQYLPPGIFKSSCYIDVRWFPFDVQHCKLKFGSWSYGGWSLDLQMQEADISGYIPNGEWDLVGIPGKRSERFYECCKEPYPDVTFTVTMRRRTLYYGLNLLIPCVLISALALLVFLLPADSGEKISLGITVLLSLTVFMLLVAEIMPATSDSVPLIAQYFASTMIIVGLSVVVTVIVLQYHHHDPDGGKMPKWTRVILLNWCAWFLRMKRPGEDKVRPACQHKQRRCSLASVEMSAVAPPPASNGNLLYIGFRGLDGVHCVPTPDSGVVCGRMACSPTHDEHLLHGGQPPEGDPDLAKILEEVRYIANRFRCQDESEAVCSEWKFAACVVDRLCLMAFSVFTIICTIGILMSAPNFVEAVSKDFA"}, "source": "patent US9987259B2", "about": "(priority 2011, dated 2018)", "target": "human α7 nAChR (Homo sapiens (Human), UniProt P36544)", "test": "FlexStation-Ca2+ influx assay of human α7 nAChR activity", "assay_type": "cell-based", "conditions": "read-out: EC50 of human α7 nAChR; HEK293T/17 cells transfected with human α7 nAChR and RIC3; with PNU-120596; fluorescence relative to 1 μM epibatidine"}
{"molecule": "CC(C)c1cnc(-n2cc(C(=O)OC3CN4CCC3CC4)ccc2=O)s1", "note": "(centres unmarked)", "values": [{"measurement": "EC50", "value": "> 1", "unit": "µM"}]}
{"molecule": "Cc1cnc(-n2cc(C(=O)OC3CN4CCC3CC4)ccc2=O)s1", "note": "(centres unmarked)", "values": [{"measurement": "EC50", "value": "> 1", "unit": "µM"}]}
